We go through one compound from ChEMBL document CHEMBL2434899, “Peripherally selective diphenyl purine antagonist of the CB1 receptor” (J Med Chem, 2013).

Chains of the proteins cited; added tags and fusions are not shown.
UniProt P21554, whole entry: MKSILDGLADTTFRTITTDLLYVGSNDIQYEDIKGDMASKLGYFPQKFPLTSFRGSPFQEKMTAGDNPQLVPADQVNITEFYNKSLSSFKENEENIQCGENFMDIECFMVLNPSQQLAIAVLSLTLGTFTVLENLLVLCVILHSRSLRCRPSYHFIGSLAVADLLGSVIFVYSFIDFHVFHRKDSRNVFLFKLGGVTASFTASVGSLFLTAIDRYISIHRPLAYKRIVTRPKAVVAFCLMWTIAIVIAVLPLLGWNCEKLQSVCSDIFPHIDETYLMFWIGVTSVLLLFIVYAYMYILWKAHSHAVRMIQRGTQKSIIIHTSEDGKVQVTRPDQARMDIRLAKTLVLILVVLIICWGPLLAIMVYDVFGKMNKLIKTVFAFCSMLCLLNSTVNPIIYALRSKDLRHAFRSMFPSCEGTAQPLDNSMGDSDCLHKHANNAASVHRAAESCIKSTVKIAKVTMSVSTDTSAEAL

This test deals with Cannabinoid receptor 1 (Homo sapiens, UniProt P21554). Put plainly: Antagonist activity at human CB1 receptor expressed in CHO-K1 cells by intracellular Ca2+ mobilization assay in presence of CP55940. It counts as functional, cell-based. The procedure, abridged:
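CHO-K1 cells co-expressing human CB1 and Gαq16; intracellular calcium flux read with fluorescent dye on a 96-well plate reader. Rightward shift of the CP55940 concentration-response curve gives Ke = [ligand]/(DR−1), DR being the CP55940 EC50 ratio with versus without test agent. Averages of 3–6 measurements.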

Regarding `O=C(NC1CCN(c2ncnc3c2nc(-c2ccccc2Cl)n3-c2ccc(Cl)cc2)CC1)Oc1ccccc1`, the Ke amounted to 4 nM.
